# Measured values reported in article PMC7723054.
# The list shows a part of the results.
# T1: LIN28A (human?, UniProt Q9H9Z2 1-209)
# T1 sequence: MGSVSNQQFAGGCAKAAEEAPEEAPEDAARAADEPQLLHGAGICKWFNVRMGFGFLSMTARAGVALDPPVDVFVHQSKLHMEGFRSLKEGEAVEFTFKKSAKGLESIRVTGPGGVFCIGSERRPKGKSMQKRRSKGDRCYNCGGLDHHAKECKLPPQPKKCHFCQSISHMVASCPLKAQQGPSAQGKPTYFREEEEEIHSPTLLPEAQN
# T2: CIRBP (Homo sapiens, UniProt Q14011 1-172)
# T2 sequence: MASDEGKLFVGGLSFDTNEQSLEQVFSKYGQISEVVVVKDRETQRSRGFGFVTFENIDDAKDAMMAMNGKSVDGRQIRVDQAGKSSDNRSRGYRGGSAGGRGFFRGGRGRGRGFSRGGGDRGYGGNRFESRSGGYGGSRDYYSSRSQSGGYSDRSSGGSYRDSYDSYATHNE
# T3: DHX36 (Homo sapiens, UniProt Q9H2U1 1-1008)
# T3 sequence: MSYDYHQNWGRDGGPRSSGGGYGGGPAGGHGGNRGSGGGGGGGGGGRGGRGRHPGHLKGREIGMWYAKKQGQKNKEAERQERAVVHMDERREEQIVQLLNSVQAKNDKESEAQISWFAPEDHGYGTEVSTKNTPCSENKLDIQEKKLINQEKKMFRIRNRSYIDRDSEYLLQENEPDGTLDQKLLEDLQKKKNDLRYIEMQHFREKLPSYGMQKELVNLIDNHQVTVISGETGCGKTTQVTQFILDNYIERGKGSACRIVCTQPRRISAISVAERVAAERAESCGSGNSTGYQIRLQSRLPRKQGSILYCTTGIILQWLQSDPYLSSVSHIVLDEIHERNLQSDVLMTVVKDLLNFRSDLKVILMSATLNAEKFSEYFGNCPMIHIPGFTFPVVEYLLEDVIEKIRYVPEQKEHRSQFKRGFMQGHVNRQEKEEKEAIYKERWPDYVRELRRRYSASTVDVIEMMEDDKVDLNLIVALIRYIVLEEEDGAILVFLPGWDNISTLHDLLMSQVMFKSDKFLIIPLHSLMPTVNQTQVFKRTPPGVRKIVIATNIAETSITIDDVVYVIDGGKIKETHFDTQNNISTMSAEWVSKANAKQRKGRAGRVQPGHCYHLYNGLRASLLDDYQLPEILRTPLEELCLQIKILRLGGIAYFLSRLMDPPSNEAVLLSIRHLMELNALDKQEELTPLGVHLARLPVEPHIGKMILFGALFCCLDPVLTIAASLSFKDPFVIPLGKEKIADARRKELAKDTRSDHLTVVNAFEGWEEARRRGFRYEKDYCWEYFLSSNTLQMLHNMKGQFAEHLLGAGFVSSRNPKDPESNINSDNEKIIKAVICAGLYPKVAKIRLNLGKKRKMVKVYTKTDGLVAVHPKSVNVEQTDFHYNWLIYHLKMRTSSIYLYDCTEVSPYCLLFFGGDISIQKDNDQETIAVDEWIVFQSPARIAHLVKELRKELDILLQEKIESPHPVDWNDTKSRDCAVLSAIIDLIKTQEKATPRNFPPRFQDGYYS
# Legend:
# Assay in all cases: FOREST: bead pull-down of RNA structure library v1, barcode microarray; U1A/LIN28A: 20 mM HEPES pH 7.5, 80 mM KCl, 20 mM NaCl, 10% glycerol, 2 mM DTT, 0.1 ug/uL BSA, 4 C; BG4/CIRBP/DHX36: 10 mM Tris-HCl pH 7.5, 100 mM KCl (or LiCl),; high values mean tight binding
# U1A = U1A (Homo sapiens, UniProt P09012)
# LIN28A = biological target: T1, LIN28A
# CIRBP = biological target: T2, CIRBP
# DHX36 = biological target: T3, DHX36
Binder,binding signal (U1A) [z-score],binding signal (LIN28A) [z-score],binding signal (CIRBP) [z-score],binding signal (DHX36) [z-score]
hsa-mir-7850 (structured_RNA) RNA: GGGACUGAGGUAAUUCCAGGACUAACACGGUGUACGAAGUUUCAGCCUGGGUCCUCUGUGCAGGGUCUUACCCAGGCUGAAGCUUCGUGCAC,0.618,-1.26,-1.84,-2.04
hsa-mir-4508 (structured_RNA) RNA: GGGAAGGGGAAAUGCCCGGUCUAGAAACGGUGUACGAAGUUUCAGCCGCGGAGCAGCGCUGGGUGCAGCGCCUGGCUGAAGCUUCGUGCAC,0.617,-1.41,-1.33,-0.665
hsa-mir-371b (structured_RNA) RNA: GGGACAAAGUAGCCCCACUUAUGCCGAAGGUGUACGAAGUUUCAGCACUUUCACCAGAGAGCAGAAAGUGCUGAAGCUUCGUGCAC,0.614,-0.861,-0.473,-0.308
hsa-mir-1226 (structured_RNA) RNA: GGGCAAAAGCAAGAACCGUAAGAGUUAAGGUGUACGAAGUUUCAGCAUGGGGCAGCUGGGAUGGUCCAAAAGGGUGGCCUCAGCUGAAGCUUCGUGCAC,0.609,1.37,-0.967,1.19
hsa-mir-6501 (structured_RNA) RNA: GGGAGCGCUAUGAGCCACAUCUAGCCAUGGUGUACGAAGUUUCAGCUUGGUGACAGCAGCAGUAGAGUUGCCAGGCUGAAGCUUCGUGCAC,0.608,0.926,-0.291,-0.0763
r(CGG)16: (structured_RNA) RNA: GGGACGGCCUGAUGAUCACACGAUUCACGGUGUACGAAGUUUCAGCCGGCGGCGGCGGCGGCGGCGGCGGCGGCGGCGGCGGCGGCGGCGGCGGGCUGAAGCUUCGUGCAC,0.605,0.104,-1.58,2.2
hsa-mir-1197 (structured_RNA) RNA: GGGAACAAGACGGUCAGCUAUCAAUGCGGGUGUACGAAGUUUCAGCUGUACGCUUUAUUUGUGACGUAGGGCUGAAGCUUCGUGCAC,0.604,1.38,0.0713,1.01
hsa-mir-6868 (structured_RNA) RNA: GGGACACCAAAGACUUAGGACCUCUCACGGUGUACGAAGUUUCAGCGCAGCAGGCACCUGCUUCCGCUGAAGCUUCGUGCAC,0.602,0.0774,0.717,0.219
hsa-mir-4519 (structured_RNA) RNA: GGGAAAGAAUAGUUGCCCAGCAUCGACUGGUGUACGAAGUUUCAGCGCUGCACUGUCUCCGUCUGCGGGCUGAAGCUUCGUGCAC,0.592,0.581,-0.125,0.904
hsa-mir-148b (structured_RNA) RNA: GGGAAAUAUCGCAGACUUUCCGGCACUCGGUGUACGAAGUUUCAGCCAGGCUGUGGCUCUCUGAAAGUCGCUGAAGCUUCGUGCAC,0.588,0.966,0.231,0.0429
hsa-mir-4687 (structured_RNA) RNA: GGGAAUAGCUCAAGGGUAAUUUGUGCCCGGUGUACGAAGUUUCAGCCCCAAACUUGGAGCACUUGACCUUUGGCGCUGAAGCUUCGUGCAC,0.588,-0.515,-1.37,-1.4
hsa-mir-4664 (structured_RNA) RNA: GGGACGGCUCGACACACCUACGUGUACAGGUGUACGAAGUUUCAGCCAAGUUAUCACUGAGCGACUUCGCUGAAGCUUCGUGCAC,0.586,-0.0503,-0.378,-1.05
NEAT1_ParasoR_ID49 (structured_RNA) RNA: GGGAAAUGGUUCUUGGCUAUGGAACCCAGGUGUACGAAGUUUCAGCCCAUGGCUAAUGUUAUUAUAUUAUGUGCUAUUGUAAUGGAUGGGGCUGUGGGCUGAAGCUUCGUGCAC,0.586,1.06,0.625,0.344
hsa-mir-484 (structured_RNA) RNA: GGGAAGUAGGUCCCACUACACUACCCCAGGUGUACGAAGUUUCAGCCGAUAAACCCCUAAAUAGGGACUUUCCCGGCUGAAGCUUCGUGCAC,0.582,-0.201,-0.314,0.0861
hsa-mir-337 (structured_RNA) RNA: GGGAACCGCUACUGGGUCUACCUGGAACGGUGUACGAAGUUUCAGCGGAGUUGAUGCACAGUUAUCCAGCUCCGCUGAAGCUUCGUGCAC,0.577,-0.2,0.354,-0.55
hsa-mir-4724 (structured_RNA) RNA: GGGAAGGAUAAUUCCGAGCAUUAGUUGAGGUGUACGAAGUUUCAGCGAGCUUCGUGUACAUUAUCUAUUAGAAAAUGAAGUACGCUGAAGCUUCGUGCAC,0.577,0.795,0.947,0.96
hsa-mir-527 (structured_RNA) RNA: GGGAAAUCCGCACGGAGCUACACGAUGCGGUGUACGAAGUUUCAGCUUUCUGUUGUCUAAAAGAAAAGAAAGCUGAAGCUUCGUGCAC,0.575,-0.0587,-1.07,-0.318
hsa-mir-4486 (structured_RNA) RNA: GGGAAUAUGGUCGGGUGGCGGGAAAAUGGGUGUACGAAGUUUCAGCGGCAUCUAGCACAGGCGGUAGAUGCUGCUGAAGCUUCGUGCAC,0.575,0.494,1.37,0.981
PARIS_ID28 (structured_RNA) RNA: GGGAAGAGUUCCCCAAACGGCAAAAUGAGGUGUACGAAGUUUCAGCAGUCCAUGGCUAAUGUUAUUAUAUUAUGUGCUAUUGUAAUGGAUGGGGCUGUGGAGUGCUGAAGCUUCGUGCAC,0.574,0.98,0.0645,-0.386
hsa-mir-3135a (structured_RNA) RNA: GGGACAAACCAGAUGGCUUUAAAUGCACGGUGUACGAAGUUUCAGCAGUGGUGCAAUCUCAGUUCACUGCUGAAGCUUCGUGCAC,0.573,-0.474,1.14,0.69
hsa-mir-6829 (structured_RNA) RNA: GGGAAUUAGAAACUGGUAACCACUGUGUGGUGUACGAAGUUUCAGCGGCAGGGUCCUCCAGCUCAUUCCUCCUGCCGCUGAAGCUUCGUGCAC,0.573,-0.477,-0.0281,-0.398
hsa-mir-3714 (structured_RNA) RNA: GGGAAUAGUUGGCGGCCUCCUAUAGCGUGGUGUACGAAGUUUCAGCCUGUGACGUGCUCCAUCACCGGGCAGGCUGAAGCUUCGUGCAC,0.572,-1.11,-0.633,-0.658
